Type: in vivo
Settings: in comparison to a 15 mg dose of hydrocodone

## CN1CC[C@]23c4c5ccc(O)c4O[C@H]2C(=O)CC[C@H]3[C@H]1C5 [Hydromorphone]
  Equianalgesic Doses of Opioids, Calculated Dose: 3.375 mg

From patent US8936808B1, “Opioid agonist/opioid antagonist/acetaminophen combinations” (Purdue Pharma L.P., priority 1997, dated 2015)
